Test results from ChEMBL document CHEMBL5241084, “Non-carbohydrate strategies to inhibit lectin proteins with special emphasis on galectins” (Eur J Med Chem, 2021).

Chains of the proteins cited; added tags and fusions are not shown.
UniProt P09382, whole entry: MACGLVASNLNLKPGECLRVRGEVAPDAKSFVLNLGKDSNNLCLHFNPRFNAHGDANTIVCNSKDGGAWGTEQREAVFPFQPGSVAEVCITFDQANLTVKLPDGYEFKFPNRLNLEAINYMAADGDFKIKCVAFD

Tests used:
[1] = target: T1, Galectin-1 (Homo sapiens, UniProt P09382); assay: Binding affinity to Gal-1 (unknown origin) by fluorescence spectroscopy
[2] = target: T1, Galectin-1
[3] = target: T1, Galectin-1; remark: listed apart in the source

Ka [1]	Ke [2]	Ka [3] [M⁻¹ s⁻¹]	SMILES
1.2 10^4/M	5.76 10^-4M	–	O=C(Nc1ccc(O)cc1)c1ccc(-c2nc3cc(Cl)ccc3n2Cc2ccccc2)cc1
9.5 10^3/M	2.9 mM	–	Oc1cccc(-n2cc(COc3ccc(-c4nc5cc(Cl)ccc5n4Cc4ccccc4)cc3)nn2)c1
1.3 10^4/M	–	–	CCOC(=O)C1CCN(Cc2cc(=O)oc3cc(OCc4ccc([N+](=O)[O-])cc4)ccc23)CC1
3 10^5/M	6.8 mM	70.4	CC1CN(Cc2cc(=O)oc3cc(OCc4cn(Cc5ccc(Cl)cc5Cl)nn4)ccc23)CC(C)O1 (stereo not drawn)
